Data as given in patent US9957264B2 (Merck Sharp & Dohme Corp., priority 2013, dated 2018).

Protein sequences, listed by entry. Tags and fused reporters are not part of them. Residues count along the entry.
UniProt O60674, 849-1124 limits assumed: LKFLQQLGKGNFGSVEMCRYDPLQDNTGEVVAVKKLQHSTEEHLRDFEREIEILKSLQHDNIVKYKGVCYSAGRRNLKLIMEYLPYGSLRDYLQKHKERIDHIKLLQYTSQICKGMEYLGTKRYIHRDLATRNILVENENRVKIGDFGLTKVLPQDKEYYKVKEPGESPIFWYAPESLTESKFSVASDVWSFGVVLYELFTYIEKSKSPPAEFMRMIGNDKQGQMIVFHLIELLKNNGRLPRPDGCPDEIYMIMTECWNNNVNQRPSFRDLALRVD
UniProt P23458, 875-1153 limits assumed: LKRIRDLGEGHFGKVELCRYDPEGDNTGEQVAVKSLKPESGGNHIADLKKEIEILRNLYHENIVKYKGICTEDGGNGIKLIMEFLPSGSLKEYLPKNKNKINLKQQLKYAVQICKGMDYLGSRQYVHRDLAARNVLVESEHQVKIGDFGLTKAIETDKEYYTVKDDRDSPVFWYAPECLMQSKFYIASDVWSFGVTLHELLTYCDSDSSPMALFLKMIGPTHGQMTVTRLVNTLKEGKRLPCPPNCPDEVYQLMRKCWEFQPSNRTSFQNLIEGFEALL

How the values were obtained:
[1] = molecular target: JAK2 (recombinant purified GST-tagged catalytic domain) (Homo sapiens (Human), UniProt O60674); experiment: Jak Biochemical HTRF Assay (JAK2); details: read-out: JAK2 IC50, [ATP] 8.5 μM
[2] = molecular target: JAK1 (recombinant purified GST-tagged catalytic domain) (Homo sapiens (Human), UniProt P23458); experiment: Jak Biochemical HTRF Assay (JAK1); details: read-out: JAK1 IC50, [ATP] 31.8 μM
Description: Jak Biochemical HTRF Assay Protocol
The ability of compounds to inhibit the activity of JAK1, JAK2, JAK3, and Tyk2 was measured using a recombinant purified GST-tagged catalytic domain for each enzyme (Invitrogen JAK1 #M4290, JAK2 #M4290, JAK3 #M4290, Tyk2 #M4290) in an HTRF format biochemical assay. The reactions employed a common peptide substrate, LCB-[…]-NH2 (in-house). The basic assay protocol is as follows: First, 250 nL of diluted compounds in DMSO were dispensed into the wells of a dry 384-well Black plate (Greiner #781076) using a Labcyte Echo 555 acoustic dispenser. Subsequent reagent additions employed an Agilent Bravo. Next, 18 μL of 1.11× enzyme and 1.11× substrate in 1× assay buffer (Invitrogen kinase buffer #PV3189, 2 mM DTT, 0.05% BSA) were added to the wells and shaken and then preincubated for 30 minutes at room temperature to allow compound binding to equilibrate. After equilibration, 2 μL of 10×ATP in 1× assay buffer was added to initiate the kinase reaction and the plates were shaken and then incubated at room temperature for 120 minutes. At the end of the incubation, 20 μL of 2× stop buffer (streptavidin-Dylight 650 (Thermo #84547B/100 mL), Eu-tagged pY20 antibody (Perkin Elmer #AD0067), EDTA, HEPES, and Triton) was added to quench the reaction. Plates were shaken and centrifuged and then incubated 60 minutes at room temperature and then read on a Perkin Elmer Envision (λex=337 nm, λem=665 and 615 nm, TRF delay time=20 μs). HTRF signal=10,000*665 nm reading/615 nm reading. After normalization to untreated controls, the percent inhibition of the HTRF signal at each compound concentration was calculated. The plot of percent inhibition versus the log of compound concentration was fit with a 4-parameter dose response equation to calculate IC50 values.
Final reaction conditions were:
Examples of the instant invention were evaluated in JAK1 and JAK2 in vitro binding assays as described above. The following table tabulates the JAK1 IC50 values and JAK2 IC50 values disclosed for the instant invention.

Compound | IC50 [1] [nM] | IC50 [2] [nM]
CN(C)S(=O)(=O)c1ccc(Nc2nn(C3(CC#N)CCN(S(=O)(=O)CC(F)(F)F)CC3)c3cc[nH]c(=O)c23)cc1 | 0.18 | 0.09
COC(=O)N1CCC(CC#N)(n2nc(Nc3ccc(S(=O)(=O)N(C)C)cc3)c3c(=O)[nH]ccc32)CC1 | 0.26 | 0.13
Cc1cc(Nc2nn([C@]3(CC#N)CCCOC3)c3cc[nH]c(=O)c23)ccc1C(=O)N1CCC(F)(F)CC1 | 0.71 | 0.3
